# System: indicator molecule containing the cleavable sequence (GPQGIFGQ) with a terminal biotin group connected via a polyethylene glycol spacer/linker, intact
substance,measurement,value
MMP13 (Enzo),reader value at 0.5 µg/ml MMP (lateral flow),6350 reader units
